Only a part is listed here, and it is no random draw. Measured potencies and affinities stand elsewhere. Calls of active or inactive are those of the source. Rule as the data show it: inconclusive = inhibition above about 29% without an active follow-up result; inactive = below that.
Each compound was assayed against Genome polyprotein (Dengue virus type 2 (strain 16681-PDK53)) (UniProt P29991) (assay: flavivirus cap methylation enzyme inhibition – biochemical, confirmation dose response, primary screen (AID 588689)). Conditions: Dengue-2 NS5 methyltransferase capping enzyme assay, at 25 µM, active compounds read high.

Sequences of proteins named here, by UniProt entry; tags and fusion partners are left off.
UniProt P29991, whole entry: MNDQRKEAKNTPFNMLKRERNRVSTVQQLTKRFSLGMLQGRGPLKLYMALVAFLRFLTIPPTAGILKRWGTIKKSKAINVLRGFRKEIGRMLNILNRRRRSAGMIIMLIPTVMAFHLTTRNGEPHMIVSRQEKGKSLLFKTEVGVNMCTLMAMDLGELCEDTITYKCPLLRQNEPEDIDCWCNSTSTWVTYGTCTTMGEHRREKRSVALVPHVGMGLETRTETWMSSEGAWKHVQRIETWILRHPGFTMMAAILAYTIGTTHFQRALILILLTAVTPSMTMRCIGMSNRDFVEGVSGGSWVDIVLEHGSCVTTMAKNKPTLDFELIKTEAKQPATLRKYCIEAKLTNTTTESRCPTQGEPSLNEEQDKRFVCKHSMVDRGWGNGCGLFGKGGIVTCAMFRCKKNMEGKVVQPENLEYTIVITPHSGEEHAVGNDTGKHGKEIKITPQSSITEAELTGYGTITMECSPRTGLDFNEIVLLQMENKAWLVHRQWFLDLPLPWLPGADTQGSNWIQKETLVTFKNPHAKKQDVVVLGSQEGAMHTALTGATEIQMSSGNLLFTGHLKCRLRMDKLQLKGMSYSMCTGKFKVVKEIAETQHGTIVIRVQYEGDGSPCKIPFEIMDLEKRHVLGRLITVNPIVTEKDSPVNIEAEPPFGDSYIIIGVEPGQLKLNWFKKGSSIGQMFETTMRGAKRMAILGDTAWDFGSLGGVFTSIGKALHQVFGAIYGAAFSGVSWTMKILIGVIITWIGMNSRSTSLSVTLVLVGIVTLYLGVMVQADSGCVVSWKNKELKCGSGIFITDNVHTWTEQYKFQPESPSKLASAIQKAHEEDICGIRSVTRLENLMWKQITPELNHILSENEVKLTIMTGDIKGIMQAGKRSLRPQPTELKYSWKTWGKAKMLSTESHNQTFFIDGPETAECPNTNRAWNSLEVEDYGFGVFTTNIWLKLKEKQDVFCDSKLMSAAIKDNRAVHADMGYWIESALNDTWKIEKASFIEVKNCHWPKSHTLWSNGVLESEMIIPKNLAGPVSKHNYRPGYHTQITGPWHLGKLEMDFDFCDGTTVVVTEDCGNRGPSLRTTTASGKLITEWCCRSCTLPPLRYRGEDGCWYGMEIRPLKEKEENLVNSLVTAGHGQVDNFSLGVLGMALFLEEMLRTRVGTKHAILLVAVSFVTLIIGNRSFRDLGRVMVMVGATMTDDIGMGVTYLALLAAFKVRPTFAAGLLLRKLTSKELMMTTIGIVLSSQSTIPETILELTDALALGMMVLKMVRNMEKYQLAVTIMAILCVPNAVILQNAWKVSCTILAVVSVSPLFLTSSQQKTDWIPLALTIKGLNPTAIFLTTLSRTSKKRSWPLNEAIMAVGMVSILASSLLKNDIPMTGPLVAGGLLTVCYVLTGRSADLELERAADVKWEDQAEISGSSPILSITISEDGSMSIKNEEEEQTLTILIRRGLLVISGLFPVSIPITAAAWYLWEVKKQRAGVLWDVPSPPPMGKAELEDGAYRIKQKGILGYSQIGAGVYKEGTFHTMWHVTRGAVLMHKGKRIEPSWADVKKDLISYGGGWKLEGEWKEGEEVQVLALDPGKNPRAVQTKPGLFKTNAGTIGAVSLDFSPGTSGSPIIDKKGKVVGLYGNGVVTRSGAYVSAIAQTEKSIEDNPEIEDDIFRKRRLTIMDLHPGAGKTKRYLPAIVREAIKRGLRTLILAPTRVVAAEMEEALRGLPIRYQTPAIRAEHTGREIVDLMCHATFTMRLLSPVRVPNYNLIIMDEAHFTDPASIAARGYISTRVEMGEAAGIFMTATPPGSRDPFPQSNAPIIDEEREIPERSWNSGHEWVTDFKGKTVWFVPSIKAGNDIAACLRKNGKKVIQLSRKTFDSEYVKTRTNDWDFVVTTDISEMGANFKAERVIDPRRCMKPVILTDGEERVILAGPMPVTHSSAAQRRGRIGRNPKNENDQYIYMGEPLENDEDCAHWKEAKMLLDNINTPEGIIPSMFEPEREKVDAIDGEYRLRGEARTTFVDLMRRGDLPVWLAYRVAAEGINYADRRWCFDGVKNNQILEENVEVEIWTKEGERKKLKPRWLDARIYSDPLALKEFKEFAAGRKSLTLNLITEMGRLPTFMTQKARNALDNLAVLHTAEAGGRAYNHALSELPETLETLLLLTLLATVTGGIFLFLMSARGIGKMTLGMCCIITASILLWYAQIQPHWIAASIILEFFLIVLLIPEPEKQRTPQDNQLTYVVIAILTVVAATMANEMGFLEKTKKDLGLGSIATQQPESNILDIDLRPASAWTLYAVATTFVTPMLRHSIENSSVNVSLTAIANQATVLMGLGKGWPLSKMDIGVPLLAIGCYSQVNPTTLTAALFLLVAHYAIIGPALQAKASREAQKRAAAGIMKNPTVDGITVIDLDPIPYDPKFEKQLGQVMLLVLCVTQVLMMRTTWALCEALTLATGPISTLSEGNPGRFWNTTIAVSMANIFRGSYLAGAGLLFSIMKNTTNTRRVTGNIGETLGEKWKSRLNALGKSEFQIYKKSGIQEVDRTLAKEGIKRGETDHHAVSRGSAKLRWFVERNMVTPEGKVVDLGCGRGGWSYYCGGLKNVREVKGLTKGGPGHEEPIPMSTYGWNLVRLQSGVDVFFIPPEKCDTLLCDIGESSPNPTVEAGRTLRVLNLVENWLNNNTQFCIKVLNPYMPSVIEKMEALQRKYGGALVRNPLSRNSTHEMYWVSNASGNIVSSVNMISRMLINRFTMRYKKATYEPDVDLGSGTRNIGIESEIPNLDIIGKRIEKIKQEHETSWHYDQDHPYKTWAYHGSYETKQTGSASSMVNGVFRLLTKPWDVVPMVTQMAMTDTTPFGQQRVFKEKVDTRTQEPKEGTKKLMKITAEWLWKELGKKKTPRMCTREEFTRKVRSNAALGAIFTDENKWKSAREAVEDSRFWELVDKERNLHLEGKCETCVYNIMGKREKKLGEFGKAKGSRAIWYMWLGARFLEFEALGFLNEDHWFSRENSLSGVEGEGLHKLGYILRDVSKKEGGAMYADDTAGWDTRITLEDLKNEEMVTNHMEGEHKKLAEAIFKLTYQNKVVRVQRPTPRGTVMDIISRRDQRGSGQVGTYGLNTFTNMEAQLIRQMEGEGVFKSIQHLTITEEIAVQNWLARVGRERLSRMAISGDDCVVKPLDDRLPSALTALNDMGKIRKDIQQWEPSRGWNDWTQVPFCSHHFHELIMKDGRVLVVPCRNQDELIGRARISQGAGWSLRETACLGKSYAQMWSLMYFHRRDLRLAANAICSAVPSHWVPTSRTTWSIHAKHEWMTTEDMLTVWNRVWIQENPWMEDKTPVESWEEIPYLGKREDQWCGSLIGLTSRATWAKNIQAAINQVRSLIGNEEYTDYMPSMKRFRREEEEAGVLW

Structure (SMILES) | inhibition
CCC(=O)N(c1ccccc1)C1(COC)CCN(CCc2cccs2)CC1 | inactive: 4.1%
CCC(=O)N(c1ccccc1)C1(COC)CCN(CCn2nnn(CC)c2=O)CC1 | inactive: 1.37%

Source: PubChem BioAssay AID588689 (Southern Research Specialized Biocontainment Screening …, 2011)
